In general, pKi refers to the negative decadic logarithm of the Ki, by convention in mol/L. A high value points to a small Ki.

Amino acid sequences for entries named in this document (tags omitted). Residues count along the entry.
UniProt H0WCX4, 1-619: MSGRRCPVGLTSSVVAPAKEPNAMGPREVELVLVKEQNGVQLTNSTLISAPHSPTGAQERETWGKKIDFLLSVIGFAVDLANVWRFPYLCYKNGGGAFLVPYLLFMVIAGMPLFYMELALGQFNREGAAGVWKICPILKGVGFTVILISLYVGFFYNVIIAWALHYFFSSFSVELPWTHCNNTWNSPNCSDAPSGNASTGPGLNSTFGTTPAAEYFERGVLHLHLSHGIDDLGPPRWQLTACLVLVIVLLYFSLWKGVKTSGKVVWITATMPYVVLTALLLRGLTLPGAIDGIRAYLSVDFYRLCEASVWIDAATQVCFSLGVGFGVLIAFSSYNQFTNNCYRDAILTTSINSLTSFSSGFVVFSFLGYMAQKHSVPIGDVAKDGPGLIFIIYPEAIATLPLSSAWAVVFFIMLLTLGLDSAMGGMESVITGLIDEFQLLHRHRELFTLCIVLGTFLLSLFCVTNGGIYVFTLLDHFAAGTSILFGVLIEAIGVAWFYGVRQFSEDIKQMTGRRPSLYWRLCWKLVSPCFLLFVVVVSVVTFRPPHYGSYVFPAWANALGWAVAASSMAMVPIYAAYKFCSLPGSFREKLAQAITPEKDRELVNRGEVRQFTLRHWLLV

Consider 1 compound from patent publication US20060173064A1, “(-)-1-(3,4-Dichlorophenyl)-3-azabi cyclo[3.1.0]hexane, compositions thereof, and uses for treating alcohol-related disorders” (priority 2001, published 2006).

This test has as its target T1, dopamine transporter (dopamine uptake site), guinea pig striatal membranes (Cavia porcellus, UniProt H0WCX4).
T1 construct: The receptor source was guinea pig striatal membranes; from tissue; host or cells: guinea pig striatum (membranes)
Put plainly: Dopamine transporter binding assay ([3H]WIN 35,428).

pKi: −log10 of the molar value. Where a name gives a salt, the structure may show the parent alone.

Compound `Fc1ccc(C(OCCN2CCN(CCCc3ccccc3)CC2)c2ccc(F)cc2)cc1` [GBR 12909, 1-[2-[bis(4-Fluorophenyl)methoxy]ethyl]-4-[3-phenylpropyl]piperazine dihydrochloride] showed a negative-log Ki (pKi) of 7.94.
